Source: US20060106014A1, “Methods for treating diabetes” (priority 2004, published 2006)

The chains behind the UniProt entries cited, without tags or fusion partners. Where a name states a change or a piece, a line headed by the entry shows the natural chain unless it says otherwise.
UniProt P16050: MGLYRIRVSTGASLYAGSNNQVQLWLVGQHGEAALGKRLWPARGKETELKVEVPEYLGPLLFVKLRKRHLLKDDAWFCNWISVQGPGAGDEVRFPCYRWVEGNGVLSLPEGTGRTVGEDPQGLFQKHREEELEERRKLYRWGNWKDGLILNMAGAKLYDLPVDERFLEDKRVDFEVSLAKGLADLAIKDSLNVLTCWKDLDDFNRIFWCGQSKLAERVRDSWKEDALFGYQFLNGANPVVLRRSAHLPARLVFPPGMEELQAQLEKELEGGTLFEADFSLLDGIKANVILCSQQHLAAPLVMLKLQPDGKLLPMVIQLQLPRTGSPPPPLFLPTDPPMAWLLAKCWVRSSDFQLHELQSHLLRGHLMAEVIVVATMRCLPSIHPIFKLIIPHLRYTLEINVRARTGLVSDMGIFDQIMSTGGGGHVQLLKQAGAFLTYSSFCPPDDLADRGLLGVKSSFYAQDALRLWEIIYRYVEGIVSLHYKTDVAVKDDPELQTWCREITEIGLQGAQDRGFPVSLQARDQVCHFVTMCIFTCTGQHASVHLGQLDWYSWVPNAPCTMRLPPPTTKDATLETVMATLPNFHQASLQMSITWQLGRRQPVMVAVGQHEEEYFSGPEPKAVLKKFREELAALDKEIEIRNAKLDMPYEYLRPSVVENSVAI

Columns and labels:
[1] = test system: NIDDM male mice (C57BLKS/J-m+/+Lepr db); experiment: Therapeutic study: serum glucose levels in diabetic animals; assay type: in vivo; conditions: 30 mg/kg, i.p. twice daily, p<0.01
Method: In vivo evaluation of the role of dual inhibitor of both 5-LO and 12/15-LO enzymes in the reduction of serum glucose levels and insulin was performed in C57BLKs/J-m+/+Lepr db mice, a non-insulin dependent diabetic mellitus (NIDDM) model, as described in Examples. […] […].
Non-insulin dependent diabetic mellitus (NIDDM) male mice (C57BLKS/J-m+/+Lepr db), weighing 45±5 g (10 weeks of age) and provided by Institute for Animal Reproduction (IAR, Japan), were used.
Groups of 10 non-insulin dependent diabetic mellitus (NIDDM) male mice (C57BLKS/J-m+/+Lepr db), weighing 45±5 g and 10-weeks-old, were used. […] Using blood samples collected from the orbital sinus, pre-treatment serum glucose and insulin levels were determined 24 hours prior to the first dosing on day 0. Post-treatment glucose and insulin levels were detected 4 hours after dosing on days 11 and 14. […] Serum glucose and Insulin (on days 0, 11 and 14) levels were determined by enzymatic (Mutaratase-GOD) and ELISA (mouse insulin assay kit) methods, respectively. The percentage of post-treatment relative to pre-treatment group values obtained on days 11 and 14 were analyzed using One Way ANOVA followed by Dunnett's test for comparison between vehicle and treated groups. […]

15-lipoxygenase = 15-lipoxygenase (Homo sapiens, UniProt P16050); conditions: background; cited from earlier work

c1ccc2c(c1)SCc1c-2[nH]c2ccccc12 [B, PD 146176, reference compound]
reduction in serum glucose relative to the respective vehicle control group (FIG. 2) [1]: reduction in serum glucose | 15-lipoxygenase inhibition / specificity as reported in the literature (15-lipoxygenase): relatively specific
